Screening results from PubChem BioAssay.
ERG Ets-DNA blk – ERG Ets/DNA interaction inhibition | fluorescence polarization, His-ERG Ets domain / labelled DNA | P11308 | 370,000 tested, 0.028% active | AID 624246 | Potency, µM (highest dose often 76.9 µM), actives largely listed as inhibitors; active = well fitted inhibition curve with a large enough effect in the polarisation, with a control signal flat; inconclusive = small, poorly fitted or top-dose-only effect, or effect the other way, or a change in a side signal; inactive = no such curve, though single readings can be large or run the other way; the % refers to the polarisation;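 note: polarization taken with two DNA probes labelled with fluorescein and Texas red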
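His-tagged ERG Ets domain (1 uM in the protein solution; 300mM KCl, 50mM Tris-HCl, 1mM EDTA, 1mM DTT, pH 7.5) received compound, then a probe mix of 5 nM fluorescein-DNA and 100nM Texas-615-DNA. Fluorescence polarization was read for both dyes.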
Giardia killer – kills Giardia lamblia | Giardia lamblia trophozoite viability | activity change, % at 7.66 µM, hits read low | 340,000 tested, 0.15% active | AID 540267; in the data active = activity change below about -80%; inconclusive = between about -30% and that limit;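 note: parasites exposed to compound for two days anaerobically before the ATP read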
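Giardia lamblia trophozoites (100 cells/well) were incubated with compounds for 48 h at 37 deg C under anaerobic conditions. Viability was read as ATP content by one-step luminescence after 15-30 min at room temperature.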
PINK1 modulator – modulators of PINK1 expression. 410,000 tested, 0.2% active. PINK1 immunofluorescence, high-content cytometry, 24 h. Potency, µM (series often up to 76.6 µM), hits mostly activators. AID 624263; active = well fitted activation curve with a large enough effect; inconclusive = small, poorly fitted or top-dose-only effect; cell line not stated here; note: nearly all actives have a fitted effect of over 65% in size
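PINK1 protein, normally rapidly degraded, was detected by immunofluorescence after 24 hour compound treatment of a stable cell line. Titration data (5 concentrations) came from laser-scanning cytometry, with CCCP-treated wells as controls.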
PTHR1 ag – PTHR1 (human) receptor agonism | 410,000 tested, 0.075% active | Q03431 | HEK293 GP2 PTHR1 cells, GloSensor cAMP luminescence, 1 h | AID 743266 | Potency, µM (doses to about 115 µM), most hits filed as activators; note: nearly all actives have a fitted effect of over 55% in size
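HEK-293-derived GP2 cells expressing PTHR1 and a GloSensor cAMP reporter, 3,000/well, plated overnight, given luciferin plus IBMX (each 0.5 mM as added) for 1 h at 37 °C, then compound for 1 h at 37 °C. Luminescence was read after 15 min at room temperature.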
ALOX12 inh – ALOX12 (human) lipoxygenase inhibition. P18054. purified 12hLO, xylenol orange hydroperoxide absorbance. Potency, µM (top dose mostly 108 µM), actives largely listed as inhibitors. 580,000 tested, 1.1% active
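Purified human 12hLO (150 nM final) in 25 mM Hepes, 0.01% Triton X-100, pH 7.0 was preincubated 15 min at room temperature with compound. Then 40 uM arachidonic acid was added, 30 min. Hydroperoxide was read by Fe-XO absorbance ratio 573/405 nm.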
miR-21 reporter – miR-21 reporter, rising signal. HeLa miR-21 FLuc reporter, luciferase, 48 h. Potency, µM (titrated, usually from 38.3 µM). 340,000 tested, under 10 active. AID 2288; active = well fitted rising curve with a large enough effect; inconclusive = small, poorly fitted or top-dose-only effect; inactive = no such curve, though single readings can be large or run the other way;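 also: miR-21 action dims this reporter so a rising signal means less miR-21 action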
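Luminescence from a firefly luciferase reporter carrying a miR-21 binding site downstream, stably expressed under a CMV promoter in HeLa cells that make miR-21 endogenously, reports miRNA modulation after 48 h compound exposure up to approximately 40uM final.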
Hits are given with their value; n = inactive; u = inconclusive; x = no result. The list is not random: actives were taken first. Their share in the collection is about 1.3%. Unless noted, calls come from the whole dose curve; as a rule, active = well fitted curve in the direction sought with a large enough effect; inconclusive = small, poorly fitted or top-dose-only effect, or another doubt; inactive = no such curve, though single readings can be large; an effect the other way counts as inactive or inconclusive.

SMILES | ERG Ets-DNA blk | Giardia killer | PINK1 modulator | PTHR1 ag | ALOX12 inh | miR-21 reporter
CCCCOP(=O)(OCCCC)C1(NS(=O)(=O)c2ccccc2)C=CC(=O)c2ccccc21 (stereo not given) | n | n | n | n | 16µM | n
Cn1c(CCC(=O)Nc2cc(S(C)(=O)=O)ccc2Cl)nc2cc(S(=O)(=O)N3CCOCC3)ccc21 | n | n | n | n | 45µM | x
O=C(Nc1cc(=O)[nH]c2nc(-c3ccccc3)nn12)c1ccccc1Cl | n | n | n | n | n | n
O=C(Nc1cc(=O)[nH]c2nc(C(F)(F)F)nn12)c1ccc(Cl)cc1Cl | x | x | x | x | 25µM | x
O=C(C[n+]1cc(Br)cc2ccccc21)c1ccccc1 | n | n | 40µM | n | u | n
O=C(C[n+]1cc(Br)cc2ccccc21)c1ccc(O)c(O)c1 | x | x | n | x | x | x
COC(=O)c1ccc(Nc2ccc3nonc3c2[N+](=O)[O-])cc1 | n | -93 | n | n | n | n
O=C(O)c1ccc(Nc2ccc3nonc3c2[N+](=O)[O-])cc1 | n | n | n | n | n | n
N#C/C(=C/c1ccc(N2CCCCC2)o1)c1cccc(F)c1 | n | n | 7.1µM | n | 10µM | n
N#C/C(=C\c1ccc(-c2ccccc2Cl)o1)c1ccc(Cl)cc1 | x | x | x | x | n | x
N#C/C(=C/c1ccc(N2CCCCCC2)o1)c1ccc(Cl)cc1 | n | n | 7.9µM | n | x | u
Cc1c(O)ccc(-c2n[nH]c(C(=O)O)c2-c2nc3ccccc3s2)c1O | n | n | n | n | 35µM | n
O=C1OC(/C=C/c2ccc(Cl)cc2)=NC/1=C/c1ccco1 | n | n | n | n | 40µM | n
Cc1ncoc1C(=O)N1CCCC(C(=O)c2cccc(C(F)(F)F)c2)C1 (stereo not given) | n | n | n | n | n | n
COc1ccc(/C=C2\OC(=S)N(C)C2=O)cc1 | x | n | n | n | n | n
CN1C(=O)/C(=C\c2ccc(N(C)C)cc2)OC1=S | n | n | 32µM | n | n | n
Cc1ccccc1Nc1nc(CSc2nnnn2C2CC2)cs1 | x | x | x | x | 28µM | x
Cc1ccc(S(=O)(=O)Cc2noc([C@@H]3C[C@@H](O)CN3C(C)C)n2)cc1 | x | x | x | x | n | x
Clc1ccc2c(NN=C3CCCC3)ccnc2c1 | x | x | x | x | 7.9µM | x
CC1CCN(S(=O)(=O)c2ccc3nc(Nc4cccc(F)c4)ccc3c2)CC1 | n | x | 16µM | n | u | n
Cc1cc(C)c(C)c(OCC(=O)Nc2ccc(S(=O)(=O)Nc3nccs3)cc2)c1 | x | x | x | x | n | x
CC(C)(C)OC(=O)N1CCC(C(=O)N2CCN(Cc3cccs3)CC2)CC1 | x | x | x | x | n | x
NCc1oc(-c2ccccc2)cc1C(=O)O | n | n | n | n | 10µM | n
CCN(CC)Cc1oc(-c2ccccc2)cc1C(=O)O | n | n | n | n | u | n
COCCCn1c(C)cc(C(=O)N[C@@H]2CN(C)C[C@H]2CN(C)C)c1C | x | x | x | x | n | x
SMILES | ERG Ets-DNA blk | Giardia killer | PINK1 modulator | PTHR1 ag | ALOX12 inh | miR-21 reporter
CC(=O)Nc1cccc(S(C)(=O)=O)c1 | 20µM | n | n | n | n | n
CC(=O)Nc1cccc(N(C)S(C)(=O)=O)c1 | n | n | n | n | n | n
CCN1CCN(Cc2c(OC)ccc3ccccc23)CC1 | n | n | n | n | n | n
COc1ccc2ccccc2c1CN1CCSCC1 | n | n | n | n | 1.6µM | n
Cc1cc(C)cc(NC(=S)NCCO)c1 | x | x | x | x | 14µM | x
CCN1CCN(C(=O)C(NS(=O)(=O)c2ccc3nc(C)sc3c2)C(C)C)CC1 (stereo not given) | n | n | n | n | n | n
Cc1ccc(NC(=O)CS(=O)(=O)c2nc(-c3ccc(C)cc3)cn2-c2ccc(C)cc2)cc1 | n | x | n | n | n | n
CCCc1cc(=O)c2c(O)ccc(OC)c2o1 | n | n | n | n | 25µM | n
CC(C)(C)c1ccc(C(=O)NCCCNC(=O)c2cccnc2)cc1 | n | n | n | n | n | n
Cc1ccc(CN(C(=O)c2cc(=O)c3cc(Cl)c(C)cc3o2)c2ccccn2)o1 | x | x | x | x | 25µM | x
CCOc1ccccc1NC(=O)N1CCC(n2c(C)nc3cccnc32)CC1 | n | x | n | n | n | n
CC(C)c1ccc(-c2nonc2NC(=O)c2ccco2)cc1 | x | x | x | x | n | x
COc1ccc(-c2c(C#N)c(N)nc3c2c(=O)n(C)c(=O)n3C)cc1 | n | n | n | n | n | n
Cn1c(Oc2ccc(-c3ccc(Br)cc3)cc2)c(C#N)c(=O)n(C)c1=O | x | x | x | x | 13µM | x
CN(C(=O)C1CCCN(c2ncnc3c2nc2n3CCCCC2)C1)c1ccccc1F (stereo not given) | n | x | n | n | n | n
CC1CCN(c2nc3c(-c4cccc(Br)c4)nnn3c3ccccc23)CC1 | n | x | n | n | n | n
CN(C)c1ncnc2c1ncn2[C@H]1CN(Cc2ccccc2)C[C@@H](CO)O1 | x | x | n | n | n | x
O=S1(=O)CCN(Cc2ccccc2C(F)(F)F)CC1 | n | n | n | n | n | n
Cc1ccccc1CN1CCN(Cc2ccccc2C(F)(F)F)CC1 | n | n | 10µM | n | u | n
Cc1ccc(S(=O)(=O)N2CCN(Cc3ccccc3C(F)(F)F)CC2)cc1 | n | n | n | n | 1.1µM | n
CCOC(=O)Nc1ccc2c(c1)N(CCCN(C)C)c1ccccc1CC2 | n | n | n | n | n | n
